Data reported in US20020152038A1, “Selection method for aroma substances” (priority 2000, published 2002).

Key:
[1] = Headspace above the milkshake, SPME-GC, relative partition parameters; format: physicochemical; details: headspace vs milkshake, 0.2% aroma mixture, 2 h at 35° C., SPME 15 min
[2] = Headspace above the lemonade, SPME, relative partition parameters; format: physicochemical; details: headspace vs lemonade, 0.05% odorant mixture, 2 h at 35° C., SPME 15 min

Substance: Musk, xylene
- Activity (logarithmic partition parameter above a milkshake) [1]: −2.648
- Activity (logarithmic partition parameter above lemonade) [2]: −2.789

Only a part of the results on these compounds is given; other tests are left out.
